PMC7244308 (Science Advances, 2020)
“And” between values parts separate entries of the source, which are not always exact repeats. Equal entries are not always repeated.

The chains behind the UniProt entries cited, without tags or fusion partners. Where a name states a change or a piece, a line headed by the entry shows the natural chain unless it says otherwise. Residues count along the entry.
UniProt Q9LCB8: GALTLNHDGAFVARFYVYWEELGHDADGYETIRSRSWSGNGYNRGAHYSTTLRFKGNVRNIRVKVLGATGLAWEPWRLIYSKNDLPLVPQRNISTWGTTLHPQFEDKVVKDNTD
UniProt P13128, 415-529 limits assumed: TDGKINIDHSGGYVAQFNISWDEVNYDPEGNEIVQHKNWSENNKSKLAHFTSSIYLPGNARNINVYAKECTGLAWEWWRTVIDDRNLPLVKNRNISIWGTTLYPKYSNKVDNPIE
UniProt Q7ZAK5, whole entry, looked up: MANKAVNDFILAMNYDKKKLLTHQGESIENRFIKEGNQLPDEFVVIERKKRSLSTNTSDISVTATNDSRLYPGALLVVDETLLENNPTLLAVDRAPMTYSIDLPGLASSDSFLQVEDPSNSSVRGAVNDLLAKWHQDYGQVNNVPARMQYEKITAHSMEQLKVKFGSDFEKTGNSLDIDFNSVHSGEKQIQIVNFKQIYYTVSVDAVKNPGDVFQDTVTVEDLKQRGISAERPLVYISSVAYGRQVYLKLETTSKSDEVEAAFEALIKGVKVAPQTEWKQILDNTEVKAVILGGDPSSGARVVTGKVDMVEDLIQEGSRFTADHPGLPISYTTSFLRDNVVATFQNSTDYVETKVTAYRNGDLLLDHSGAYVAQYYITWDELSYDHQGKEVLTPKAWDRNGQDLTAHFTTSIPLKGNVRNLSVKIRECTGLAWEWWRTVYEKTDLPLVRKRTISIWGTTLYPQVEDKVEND
UniProt P0C0I3, 34-571 limits assumed: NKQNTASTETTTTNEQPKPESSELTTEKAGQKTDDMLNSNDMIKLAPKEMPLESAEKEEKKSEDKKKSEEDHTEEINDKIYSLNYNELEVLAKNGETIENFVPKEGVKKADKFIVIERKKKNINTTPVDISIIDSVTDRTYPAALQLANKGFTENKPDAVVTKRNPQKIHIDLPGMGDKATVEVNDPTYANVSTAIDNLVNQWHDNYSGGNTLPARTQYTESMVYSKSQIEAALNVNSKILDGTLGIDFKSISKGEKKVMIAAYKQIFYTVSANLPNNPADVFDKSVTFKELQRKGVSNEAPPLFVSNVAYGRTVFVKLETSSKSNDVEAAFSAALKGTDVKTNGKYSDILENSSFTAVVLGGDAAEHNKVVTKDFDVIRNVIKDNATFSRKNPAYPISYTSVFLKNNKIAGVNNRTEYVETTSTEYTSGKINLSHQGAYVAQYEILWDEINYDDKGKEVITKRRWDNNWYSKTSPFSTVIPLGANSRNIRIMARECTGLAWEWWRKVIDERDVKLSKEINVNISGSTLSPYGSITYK

What was measured:
ILY = ILY (Streptococcus intermedius, UniProt Q9LCB8); type: binding
LLY (−LD) = LLY (−LD) (Streptococcus mitis, UniProt Q2PHL4); type: binding
[1] = type: physicochemical
LLO D4 = LLO D4 (Listeria monocytogenes serovar 1/2a, UniProt P13128); type: binding
Ply = Ply (Streptococcus pneumoniae, UniProt Q7ZAK5); type: binding
SLO = SLO (Streptococcus pyogenes serotype M1, UniProt P0C0I3); type: binding

For pregnenolone sulfate (sodium salt) [PS], the Kd (ILY) was 588 nM, the Kd (LLY (−LD)) was 997 nM and the solubility [1] was “up to 500 μM”. The Kd (LLO D4) was 214 nM, the Kd (Ply) was ~0.4 nM and 0.4 nM and the Kd (SLO) was 52 nM.
